Assay results as given in PubChem BioAssay AID651661 (Broad Institute, 2012).
Only a part is listed here, and it is no random draw. The source made the active and inactive calls.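 How the source made its calls: active means mean inhibition of at least 50% after viability correction, with every replicate also passing that limit; inconclusive means mean reaches 50% but only one of two replicates passes; inactive means the rest.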

test: blockers of EWS/Fli transcriptional output – A673 cells, NR0B1 luciferase, luminescence, MLPCN library, primary screen (AID 651661); details: A673 NR0B1-luciferase reporter, viability-normalised; at 12.6 µM; stronger effect = higher value;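 further: firefly luciferase signal divided by Alamar Blue viability fluorescence both relative to DMSO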

Compound	inhibition
CSc1ccc(C(=O)NCC2(N3CCOCC3)CCCCC2)cc1	inactive: 4.23%
O=C(NCC1(N2CCCCC2)CCCCC1)c1cccc(C(F)(F)F)c1	inactive: -12%
COc1cc(C(=O)NCC2(N3CCCCC3)CCCCC2)ccc1OC(F)F	inactive: -11.4%
COc1ccc(NC2CCN(C(=O)OC(C)(C)C)CC2)cc1	inactive: 0.393%
CC(C)c1ccc(C(=O)NCC2(N3CCOCC3)CCCCC2)cc1	inactive: -15.4%
CN1CCN(CCOC(=O)C(O)(c2ccccc2)c2ccccc2)CC1	inactive: -4.88%
CCCCn1nnnc1C(c1cccc2ccccc12)N1CCC(n2c(=O)[nH]c3ccccc32)CC1 (centres undefined)	inactive: -6.77%
O=C1CCN(Cc2ccccc2)CC1	inactive: 4.22%
CC(C)(C)n1nnnc1C(c1ccccc1)N1CCC(n2c(=O)[nH]c3ccccc32)CC1 (centres undefined)	inactive: 12.9%
CCOc1ccc(C)cc1CN(CCCl)CCCl	inactive: 2%
CCOC(=O)N1CCC(Nc2ccc(F)cc2)CC1	inactive: 3.39%
CCCCOc1ccc(C(=O)NCC2(N3CCOCC3)CCCCC2)cc1	inactive: -2.42%
CCCCn1nnnc1C(c1cc2ccccc2o1)N1CCC(n2c(=O)[nH]c3ccccc32)CC1 (centres undefined)	inactive: 34.1%
O=P1(N(CCCl)CCCl)SCCCS1	inactive: -3.62%
O=C(NCC1(N2CCCCC2)CCCCC1)c1ccc(F)cc1	inactive: -11.7%
O=c1[nH]c2ccccc2n1C1CCN(C(c2ccccc2)c2nnnn2C2CCCCC2)CC1 (centres undefined)	inactive: 9.04%
CCOC(=O)N1CCC(Nc2cccc(C)c2)CC1	inactive: -11.5%
COc1cc(C(=O)NCC2(N(C)C)CCCCC2)ccc1OC(F)F	inactive: -5.2%
O=c1[nH]c2ccccc2n1C1CCN(C(c2cccc3ccccc23)c2nnnn2C2CCCC2)CC1 (centres undefined)	inactive: 13.2%
COc1ccc(C(=O)NCC2(N3CCCCC3)CCCCC2)c(OC)c1OC	inactive: -0.359%

Compound	inhibition
CC(C)(C)OC(=O)N1CCC(N(C(=O)c2ccccc2)c2ccc(F)cc2)CC1	inactive: 4.7%
CCC(c1nnnn1C1CCCC1)N1CCC(n2c(=O)[nH]c3ccccc32)CC1 (centres undefined)	inactive: -12.3%
COc1ccc(C(=O)NCC2(N3CCCCC3)CCCCC2)cc1	inactive: -8.78%
CCCCn1nnnc1C(CC)N1CCC(n2c(=O)[nH]c3ccccc32)CC1 (centres undefined)	inactive: -3.96%
O=C(NCC1(N2CCCCC2)CCCCC1)c1cccs1	inactive: 0.184%
CCCCn1nnnc1C(c1cccs1)N1CCC(n2c(=O)[nH]c3ccccc32)CC1 (centres undefined)	inactive: 3.85%
O=C(NCC1(N2CCCCC2)CCCCC1)c1ccc(=O)[nH]c1	inactive: 1.81%
Cc1cccc(NC2(C#N)CCN(Cc3ccccc3)CC2)c1	inactive: 3.38%
CSc1ccccc1C(=O)NCC1(N2CCCCC2)CCCCC1	inactive: 2.47%
Cc1cc(C)cc(N(C(=O)c2ccccc2)C2CCN(C(=O)OC(C)(C)C)CC2)c1	inactive: 21.6%
O=C(NCC1(N2CCCCC2)CCCCC1)c1ccc(Cl)nc1	inactive: -4.66%
O=c1[nH]c2ccccc2n1C1CCN(C(c2ccccc2OC(F)(F)F)c2nnnn2C2CCCCC2)CC1 (centres undefined)	inactive: 19.4%
COc1ccc(Cl)cc1C(=O)NCC1(N2CCOCC2)CCCCC1	inactive: -1.35%
O=C(NCC1(N2CCCCC2)CCCCC1)c1ccc(Cl)s1	inactive: -1.47%
N#CC1(Nc2ccccc2)CCN(Cc2ccccc2)CC1	inactive: 0.16%
O=c1[nH]c2ccccc2n1C1CCN(C(c2cc3ccccc3o2)c2nnnn2C2CCCCC2)CC1 (centres undefined)	inactive: -3.4%
O=C(OC1CN2CCC1CC2)C1c2ccccc2Oc2ccccc21 (centres undefined)	inactive: -12.3%
CCCCn1nnnc1C(c1ccc(OC)cc1)N1CCC(n2c(=O)[nH]c3ccccc32)CC1 (centres undefined)	inactive: 4.09%
CCOC(=O)N1CCC(Nc2ccc(OC)cc2)CC1	inactive: 1.85%
